Laboratory results reported in publication PMC7723054.
The other results are listed elsewhere or left out.

B1: hsa-mir-548am (structured_RNA)
RNA: GGGCACCUGAUGAACUCGGGAACCAUGGGGUGUACGAAGUUUCAGCUUUGCCGUCGAAAAUAAUGGCAAAGCUGAAGCUUCGUGCAC
B2: hsa-mir-4675 (structured_RNA)
RNA: GGGAGGUAAAUUACACAGACCCUGUCCCGGUGUACGAAGUUUCAGCCCCUGGUCAGACUCUCCGGGGGCUGAAGCUUCGUGCAC
B3: hsa-mir-1236 (structured_RNA)
RNA: GGGAAUGUGAGUCAACUUCAAGGUACCCGGUGUACGAAGUUUCAGCGGGGAUGGACUGGAAGUGGGCAGCAUGGAGCUGACCUUCAUCAUGGCUUGGCCAACAUAAUGCCUCGCUGAAGCUUCGUGCAC
B4: PARIS_ID38 (structured_RNA)
RNA: GGGACGCUGUCCAGUCGGGUUUAUCUCAGGUGUACGAAGUUUCAGCCAUUUUCUGGCUGUGGAUGUACUAAAAUGUAUCCUAUUAUUCUCUGCCCUAAAAUGGCUGAAGCUUCGUGCAC
B5: hsa-mir-3117 (structured_RNA)
RNA: GGGAACAAAACGGCGAGCACCGUUGAUAGGUGUACGAAGUUUCAGCAUAUAAGGGAAGGCAUUAUAGGCUGAAGCUUCGUGCAC
B6: hsa-mir-3141 (structured_RNA)
RNA: GGGAAAAGACCACGGGCGUAAUGUUGUAGGUGUACGAAGUUUCAGCAGGAGGGUCCGCUGAAGCUUCGUGCAC
B7: hsa-mir-4515 (structured_RNA)
RNA: GGGACCUGGCCUGAGGCUGACUUACUUGGGUGUACGAAGUUUCAGCGCCCCAGGGCAGGGGCGCUGAAGCUUCGUGCAC
B8: hsa-mir-520e (structured_RNA)
RNA: GGGAACAGCGAAGUUGGGUUAGUGAAACGGUGUACGAAGUUUCAGCGUUUCUGUUGUCUGAAAGGAAAGAAAGGCUGAAGCUUCGUGCAC
B9: hsa-mir-223 (structured_RNA)
RNA: GGGAACCCAAGUAGGCGUAACGUUACCAGGUGUACGAAGUUUCAGCAGUUGGACACUCCAUGUGGUAGAGUGUCGCUGAAGCUUCGUGCAC
B10: hsa-mir-6081 (structured_RNA)
RNA: GGGAAAGAAGCGUUCGACCCUACCGUGCGGUGUACGAAGUUUCAGCCCCGUAGGACACCGAGGCUUAUGAAUAGGAGCUGAAGCUUCGUGCAC
B11: hsa-mir-1193 (structured_RNA)
RNA: GGGACAGUCGGACUUCUAACGGAAUAUUGGUGUACGAAGUUUCAGCGUGCACUUCAUUUACGAUGUAGGCUGAAGCUUCGUGCAC
B12: hsa-mir-4769 (structured_RNA)
RNA: GGGAACAGCCGUGCACACUAGACUUGCUGGUGUACGAAGUUUCAGCAUGAGCUAAAAAUCCCCAAGCUCUGCUGAAGCUUCGUGCAC
B13: hsa-mir-32 (structured_RNA)
RNA: GGGAACGCGAGAAGACCACUUGAUCUAUGGUGUACGAAGUUUCAGCGUUGCAUGUUGUCACGGCCUCAAUGCAAUGCUGAAGCUUCGUGCAC
B14: hsa-mir-6757 (structured_RNA)
RNA: GGGACAACGUAGGACCACCGAACGUUCCGGUGUACGAAGUUUCAGCGAUGAAGAUUAAUCCCUAAUCCCCAACAGCUGAAGCUUCGUGCAC
B15: hsa-mir-4431 (structured_RNA)
RNA: GGGACAAUCUCCGGCACGUGAACUUCAAGGUGUACGAAGUUUCAGCAGGUUUAUGACUGGGCAUUUCUCACCCAAUGCCCAAUAUUGAACUUGCUGAAGCUUCGUGCAC
B16: hsa-mir-3166 (structured_RNA)
RNA: GGGAAUUUUGCGGGGCGAGUGAACUUCGGGUGUACGAAGUUUCAGCUGCGUUAGGAUUUCUGUAUCAUCCUCCUAACGCAGCUGAAGCUUCGUGCAC
B17: hsa-mir-3619 (structured_RNA)
RNA: GGGAAGGAAUAAUCAUAUGGCAGGACACGGUGUACGAAGUUUCAGCCAGCCCGUGGUGGGGGCUGAAGCUUCGUGCAC
B18: hsa-mir-544b (structured_RNA)
RNA: GGGAUAUUGUAGAACUGUUAGCUGCACCGGUGUACGAAGUUUCAGCAUUUCUGUAGCUCUGAGACUAGACCUGCUGAAGCUUCGUGCAC
B19: hsa-mir-7973-2 (structured_RNA)
RNA: GGGACCGUAAGUAGACAGCCAACGUUUUGGUGUACGAAGUUUCAGCUUACUCACCCUCUCAAAACCGAGACUCAGAGACGUUGGGUAAGCUGAAGCUUCGUGCAC
B20: hsa-mir-1281 (structured_RNA)
RNA: GGGAAGUUCCAACGGGUUAAAAUACGUAGGUGUACGAAGUUUCAGCGUGAGUGUCUCUUGUCGCGCUGAAGCUUCGUGCAC
B21: hsa-mir-4450 (structured_RNA)
RNA: GGGAGACACCGAGCUCAACUGAAAUACGGGUGUACGAAGUUUCAGCGUGAGCGCAGGUCUUUGGCACGCUGAAGCUUCGUGCAC
B22: hsa-mir-1185-2_1185-1 (structured_RNA)
RNA: GGGACAGGCGGUGCAAAUGCUCAUCAACGGUGUACGAAGUUUCAGCAUGUUCACUUGAUUAAUGGCGAAUAUGCUGAAGCUUCGUGCAC
B23: hsa-mir-4285 (structured_RNA)
RNA: GGGAAAACCGAUUGUGCGACUGUUUAGAGGUGUACGAAGUUUCAGCUCAUAAAUAUUUUAAGGAAUGACCCGGCCCUGGGGGCUGAAGCUUCGUGCAC

biological target: U1A (Homo sapiens, UniProt P09012); test: FOREST: bead pull-down of RNA structure library v1, barcode microarray; U1A/LIN28A: 20 mM HEPES pH 7.5, 80 mM KCl, 20 mM NaCl, 10% glycerol, 2 mM DTT, 0.1 ug/uL BSA, 4 C; BG4/CIRBP/DHX36: 10 mM Tris-HCl pH 7.5, 100 mM KCl (or LiCl),; high values mean tight binding

Row | Binder | binding signal [z-score]
1 | B1 | 0.15
2 | B2 | 0.147
3 | B3 | 0.147
4 | B4 | 1.8
5 | B5 | 0.144
6 | B6 | 0.143
7 | B7 | 0.142
8 | B8 | 0.142
9 | B9 | 0.14
10 | B10 | 0.136
11 | B11 | 0.136
12 | B12 | 0.136
13 | B13 | 0.135
14 | B14 | 0.134
15 | B15 | 1.79
16 | B16 | 0.133
17 | B17 | 0.127
18 | B18 | 0.126
19 | B19 | 0.125
20 | B20 | 0.125
21 | B21 | 0.123
22 | B22 | 0.123
23 | B23 | 0.122

biological target: T1, LIN28A (human?, UniProt Q9H9Z2 1-209); test: as above
T1 sequence: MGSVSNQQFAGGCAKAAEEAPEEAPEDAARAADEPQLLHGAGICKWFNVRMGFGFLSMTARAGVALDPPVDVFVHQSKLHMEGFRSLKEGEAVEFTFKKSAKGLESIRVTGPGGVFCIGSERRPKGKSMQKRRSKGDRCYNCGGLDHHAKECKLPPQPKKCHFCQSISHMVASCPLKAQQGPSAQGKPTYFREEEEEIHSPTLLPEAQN

Row | Binder | binding signal [z-score]
24 | B1 | -3.56
25 | B2 | -0.0237
26 | B3 | 0.61
27 | B4 | 0.58
28 | B5 | -0.154
29 | B6 | 1.2
30 | B7 | -1.95
31 | B8 | 1.05
32 | B9 | -0.471
33 | B10 | -0.265
34 | B11 | 0.36
35 | B12 | 0.826
36 | B13 | -1.3
37 | B14 | -0.0247
38 | B15 | -0.0682
39 | B16 | 0.953
40 | B17 | -0.0822
41 | B18 | 0.336
42 | B19 | 0.157
43 | B20 | 0.55
44 | B21 | 1.09
45 | B22 | -0.196
46 | B23 | 1.44

biological target: T2, CIRBP (Homo sapiens, UniProt Q14011 1-172); test: as above
T2 sequence: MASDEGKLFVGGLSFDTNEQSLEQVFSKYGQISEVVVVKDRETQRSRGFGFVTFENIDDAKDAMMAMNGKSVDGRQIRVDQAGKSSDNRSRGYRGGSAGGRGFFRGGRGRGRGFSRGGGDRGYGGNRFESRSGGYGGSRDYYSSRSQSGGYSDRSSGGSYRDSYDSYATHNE

Row | Binder | binding signal [z-score]
47 | B1 | -1.8
48 | B2 | 0.28
49 | B3 | -0.272
50 | B4 | -0.253
51 | B5 | -0.505
52 | B6 | 3.35
53 | B7 | -1.06
54 | B8 | 2.11
55 | B9 | -0.78
56 | B10 | -0.213
57 | B11 | 0.0517
58 | B12 | -0.274
59 | B13 | -0.459
60 | B14 | -0.835
61 | B15 | 0.306
62 | B16 | -0.565
63 | B17 | 0.359
64 | B18 | -0.0825
65 | B19 | 0.346
66 | B20 | 0.653
67 | B21 | -0.324
68 | B22 | -0.877
69 | B23 | -0.141

biological target: T3, DHX36 (Homo sapiens, UniProt Q9H2U1 1-1008); test: as above
T3 sequence: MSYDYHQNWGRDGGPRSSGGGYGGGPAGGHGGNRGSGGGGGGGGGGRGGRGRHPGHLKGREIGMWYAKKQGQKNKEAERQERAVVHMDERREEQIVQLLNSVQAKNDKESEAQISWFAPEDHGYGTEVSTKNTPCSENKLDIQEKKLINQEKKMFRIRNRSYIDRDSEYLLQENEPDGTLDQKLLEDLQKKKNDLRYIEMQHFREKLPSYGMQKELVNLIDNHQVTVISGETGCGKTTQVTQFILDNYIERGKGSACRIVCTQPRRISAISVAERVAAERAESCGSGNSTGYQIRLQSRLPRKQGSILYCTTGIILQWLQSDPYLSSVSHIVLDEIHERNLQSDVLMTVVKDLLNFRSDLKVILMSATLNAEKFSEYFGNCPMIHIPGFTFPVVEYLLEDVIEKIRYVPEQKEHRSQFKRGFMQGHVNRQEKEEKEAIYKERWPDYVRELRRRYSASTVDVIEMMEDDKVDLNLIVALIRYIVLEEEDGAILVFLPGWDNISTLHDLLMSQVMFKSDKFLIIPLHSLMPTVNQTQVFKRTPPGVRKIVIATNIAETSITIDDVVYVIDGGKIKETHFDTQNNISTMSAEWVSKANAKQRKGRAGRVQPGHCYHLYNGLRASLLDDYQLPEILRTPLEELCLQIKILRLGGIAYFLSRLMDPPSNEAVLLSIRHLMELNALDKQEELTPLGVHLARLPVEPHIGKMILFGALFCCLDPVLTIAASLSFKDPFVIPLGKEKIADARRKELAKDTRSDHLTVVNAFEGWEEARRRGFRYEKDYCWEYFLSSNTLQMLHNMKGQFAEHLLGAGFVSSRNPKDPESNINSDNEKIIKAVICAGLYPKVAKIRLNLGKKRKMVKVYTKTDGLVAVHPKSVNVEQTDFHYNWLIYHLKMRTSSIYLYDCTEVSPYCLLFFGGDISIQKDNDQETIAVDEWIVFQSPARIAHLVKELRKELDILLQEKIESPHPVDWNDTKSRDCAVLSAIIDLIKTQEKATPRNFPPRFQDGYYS

Row | Binder | binding signal [z-score]
70 | B1 | -0.711
71 | B2 | -0.0451
72 | B3 | 1.58
73 | B4 | -0.115
74 | B5 | -1.1
75 | B6 | 0.745
76 | B7 | -0.594
77 | B8 | 0.294
78 | B9 | -0.687
79 | B10 | -1.38
80 | B11 | -0.0169
81 | B12 | 0.148
82 | B13 | -1.51
83 | B14 | -0.97
84 | B15 | -1.22
85 | B16 | 1.48
86 | B17 | 0.121
87 | B18 | -1.19
88 | B19 | 0.42
89 | B20 | 0.556
90 | B21 | -0.594
91 | B22 | -0.398
92 | B23 | 1.02
